Test results published in patent publication US20110034399A1, “Liquid and Freeze Dried Formulations” (IPSEN PHARMA S.A.S., priority 2008, published 2011).

Assay: Formulation stability of lyophilisate form (HPLC content and purity, pH) on storage
Type: physicochemical
Description: Stabilities measurements were performed by means of High Performance Liquid Chromatographic (HPLC) method. The HPLC system a HPLC Waters Alliance 2695 completed by detection system 2487 Dual λ Absorbance Detector, the column used was a C18, 250×4.6 mm. All details concerning instrumental conditions are gathered in table 6. Elution conditions are gathered in table 7. Two pharmaceutical forms were studied in parallel for stability assays over six months at +5° C. and +25° C./60% RH (relative humidity) and +40° C./75% RH. Measurements were carried out in parallel with (in either wfi, or 5% dextrose as solvent) and a lyophilisate (drug substance on its own) or as second variant of formulations with an additional bulking agents such as mannitol, glycine and trehalose) in WFI. [table] C (% initial) represents the content expressed in percentage at the moment T with regard to the content at the moment Tzero. P (% a/a) represents the purity of the solution expressed by areas (a) ratio in percentage: Table 6 discloses the method and apparatus for measurement of stabilities of the active substance in the formulation disclosed in the present invention. [table] In table 7 are gathered the elution program, the ratio of each eluant (mobile phase) used for measurement of formulation stabilities. [table] […] 760 was calculated by means of the following relation: […]

Q: Which results are given for `CCCN1CC(CSCC(=O)N[C@H](CCCCNC(=O)CSC[C@@H]2C[C@@H]3c4cccc5[nH]cc(c45)C[C@H]3N(CCC)C2)C(=O)N[C@H]2CSSC[C@@H](C(=O)N[C@H](C(N)=O)[C@@H](C)O)NC(=O)[C@H](CC)NC(=O)[C@H](CCCCN)NC(=O)[C@@H](Cc3c[nH]c4ccccc34)NC(=O)[C@H](Cc3ccc(O)cc3)NC2=O)C[C@@H]2c3cccc4[nH]cc(c34)C[C@H]21` (stereo partly drawn) [BIM23A760, Dop2-DLys(Dop2)-c(Cys-Tyr-DTrp-Lys-Abu-Cys)-Thr-NH2]?
A: pH (+25° C./60% RH, T3 Months): 6.12; pH (+40° C./75% RH, T1 Month): 6.87
